Data reported in PMC8541915.

Molecular target: YFP-SERCA2a (type 2 sarco/endoplasmic reticulum Ca2+-ATPase, cardiac isoform 2a, labelled with YFP) (human) (UniProt P16615)
Assay: FRET or BRET

stoichiometry N (PS1 per SERCA2a): 1
Substance: mCer-PS1 (presenilin 1 with mCerulean fused to its N-terminus) (from UniProt P49768 1-467) (natural protein)
